# Screening data (PubChem BioAssay)
# Compounds with a hit are over-represented: about 3.7% of the library has one in this group of screens.
# Nrf2 activator – Nrf2 pathway activation; 0.31% of 410,000 active; Potency, µM (series often up to 46.1 µM), without a hit: at the top dose activation, most hits filed as activators; AREc32 ARE-luciferase reporter (MCF7-derived line), luminescence, 24 h; AID 624171; note: potency is the fitted concentration of half-maximal effect; % of control where 0% means no effect; nearly all actives have a fitted effect of over 65% in size
#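 Reporter line AREc32 (ARE-Fluc), seeded overnight in OPTI-MEM with 5% FBS; compound pin-transferred, 24 hr at 37 deg C, 5% CO2; luminescent read-out.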
# Nrf2 block – inhibitors of Nrf2 signaling; A549 ARE-Fluc reporter, luciferase luminescence, 18-24 h; Potency, µM (doses to about 46 µM), without a hit: at the highest dose activity change, negative = inhibition, hits mostly inhibitors; 2.1% of 360,000 active; note: potency is the fitted concentration of half-maximal effect; % is set by controls: 0 for no effect and ±100 for the full control effect; nearly all actives have a fitted effect of over 60% in size
#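 Quantitative HTS in A549 cells stably bearing an antioxidant response element-firefly luciferase construct. Inhibition of Nrf2-driven transcription was scored by luminescence after 18-24 h of compound exposure at 37 °C.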
# A549 tox – A549 cytotoxicity, counter-screen for Nrf2 inhibitors; Potency, µM (series often up to 46 µM), inactives show top-dose activity change, negative = cytotoxicity, usual class: inhibitors; 0.16% of 390,000 active; AID 504648; A549 ARE-Fluc cells, CellTiter-Fluor viability, 18-24 h; note: potency is the fitted concentration of half-maximal effect; % is set by controls: 0 for no effect and ±100 for the full control effect
#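 Cytotoxicity counterscreen: CellTiter-Fluor fluorescence was measured in A549 ARE_Fluc cells after 18-24 h of compound exposure in a concentration series. The subsequent BugLite luminescent read reports ARE-luciferase activity.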
# miR-21 reporter – miR-21 reporter, rising signal; HeLa miR-21 FLuc reporter, luciferase, 48 h; Potency, µM (titrated, usually from 38.3 µM), for the others: at the top dose reporter change, positive = more light; 340,000 tested, under 10 active; AID 2288; active = well fitted rising curve with a large enough effect; inconclusive = small, poorly fitted or top-dose-only effect; inactive = no such curve, though single readings can be large or run the other way;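 also: % of control where 0% means no effect; miR-21 action dims this reporter so a rising signal means less miR-21 action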
#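 HeLa miR-21-FLuc reporter line, endogenous miR-21; 2000 cells/well in DMEM/10% FBS; compound titration up to ~40uM final, 48 h, 37 degree Celsius; luciferase detection reagent, 15 min lysis, CCD luminescence.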
# TCR act – T cell receptor activation; AID 504894; Potency, µM (series often up to 9.22 µM), inactives show at the highest dose activation of IL-2 secretion, most hits filed as activators; primary human leukocytes, anti-CD3, IL-2 HTRF, 48 h; 330,000 tested, under 10 active; note: % of control where 0% means no effect
#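 48 hr co-incubation of compounds, a-CD3 beads and primary human leukocytes; IL-2 quantified homogeneously by HTRF with anti-IL-2 K and d2 conjugates.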
# ClpP mod – qHTS Assay for Activators of ClpP; ATP-dependent Clp protease proteolytic subunit (Bacillus subtilis (strain 168)), P80244; purified B. subtilis ClpP, FRET peptide cleavage, 20 min; Potency, µM (titrated, usually from 57.5 µM), for the others: at the highest dose activity change, negative = active; 1.9% of 340,000 active; AID 651965, 2013; active = well fitted falling curve with a large enough effect; inconclusive = small, poorly fitted or top-dose-only effect; inactive = no such curve, though single readings can be large or run the other way; note: potency is the fitted concentration of half-maximal effect; the source files actives as falling curves though it sought activators and does not explain the sign; nearly all actives have a fitted effect of over 65% in size
#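 FRET quenching reversal measured ClpP activation: 10 microg/mL B. subtilis ClpP at pH 8 with the FRET-FV decapeptide, read at 430 nm after 320 nm excitation. The 20-min minus 0-min signal was scaled between DMSO/no-enzyme wells and ADEP (5.8 microM final).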
# Starred values were filed as active, the others as inactive; ? = inconclusive; · = not tested or not shown; [ ] = another dose, or the depositor's remark. Unless noted, calls come from the whole dose curve; as a rule, active = well fitted curve in the direction sought with a large enough effect; inconclusive = small, poorly fitted or top-dose-only effect, or another doubt; inactive = no such curve, though single readings can be large; an effect the other way counts as inactive or inconclusive.
# Short forms – A = Nrf2 activator; B = Nrf2 block; C = A549 tox; D = miR-21 reporter; E = TCR act; F = ClpP mod
1: O=C(Cn1c(-c2cccs2)cc2ccccc21)N1CCN(c2ccc(F)cc2)CC1
  A = 0% | B = 24% | C = 0% | D = 0% | E = · | F = 35µM*

2: O=C(Cn1c(-c2cccs2)cc2cc(Cl)ccc21)N1CCN(c2ccccc2)CC1
  A = 2% | B = ? | C = 3% | D = -5% | E = · | F = 25µM*

3: CC1=C(C(=O)N(C)C)CC(CC(=O)NCc2cccs2)C(=O)N1Cc1ccc(F)cc1 (configuration not stated)
  A = -1% | B = · | C = · | D = · | E = · | F = -3%

4: O=C(Nc1c(-c2ccccc2)nc2ccccn12)c1ccccc1F
  A = 0% | B = ? | C = -12% | D = -10% | E = 3% | F = 0%

5: Cc1ccc(Cl)cc1N1CCN(C(=O)Cn2c(-c3cccs3)cc3cc(F)ccc32)CC1
  A = 0% | B = 20% | C = 0% | D = -4% | E = · | F = 8.9µM*

6: O=C(Cn1c(-c2cccs2)cc2cc(F)ccc21)N1CCCCC1
  A = 10% | B = ? | C = -13% | D = 0% | E = · | F = ?

7: O=C(CN1CCN(S(=O)(=O)c2ccccc2F)CC1)Nc1ccccc1C(=O)c1ccccc1
  A = 4% | B = 15µM* | C = -12% | D = 14% | E = 3% | F = -1%

8: O=C(CN1CCCC1)Nc1ccccc1C(=O)c1ccccc1
  A = 0% | B = 2% | C = 15% | D = -5% | E = 3% | F = -1%

9: Cc1cc(S(=O)(=O)Nc2cc3c(cc2N2CCOCC2)n(C)c(=O)n3C)ccc1F
  A = 4% | B = -12% | C = -3% | D = -18% | E = · | F = 0%

10: CN(C)c1ccc(/C=C/c2ccnc3ccc(N)cc23)cc1
  A = · | B = · | C = · | D = · | E = · | F = 2%

# With a hit mark in ClpP mod, among the entries above:
No. | canonical_smiles | Nrf2 block | miR-21 reporter | TCR act | ClpP mod
1 | O=C(Cn1c(-c2cccs2)cc2ccccc21)N1CCN(c2ccc(F)cc2)CC1 | 24% | 0% | · | 35µM*
2 | O=C(Cn1c(-c2cccs2)cc2cc(Cl)ccc21)N1CCN(c2ccccc2)CC1 | ? | -5% | · | 25µM*
5 | Cc1ccc(Cl)cc1N1CCN(C(=O)Cn2c(-c3cccs3)cc3cc(F)ccc32)CC1 | 20% | -4% | · | 8.9µM*

# The results go on:
# Short forms – A = Nrf2 activator; B = Nrf2 block; C = A549 tox; D = miR-21 reporter; E = TCR act; F = ClpP mod
11: O=C(O)/C=C/C(=O)c1c(-c2ccccc2)[nH]c2ccccc12
  A = 10µM* | B = 1% | C = 2% | D = 9% | E = 9% | F = 2%

12: COc1ccnc(NCc2cccnc2)c1C#N
  A = 0% | B = ? | C = 1% | D = -7% | E = -3% | F = 32µM*

13: COc1ccnc(NCc2cccc(C(F)(F)F)c2)c1C#N
  A = 0% | B = 0% | C = 1% | D = -11% | E = -1% | F = ?

14: COc1ccc(C)cc1-n1nnnc1SCc1cc(=O)n2cc(C)ccc2n1
  A = 0% | B = 13µM* | C = -21% | D = 15% | E = 1% | F = -10%

15: COc1cccc2nccc(/C=C/c3ccc(N(C)C)cc3)c12
  A = · | B = · | C = · | D = · | E = · | F = -2%

16: CCOC(=O)c1ccc(N2C(=O)c3[nH]nc(-c4ccc(OC)cc4)c3C2c2ccc(C)cc2)cc1 (configuration not stated)
  A = 1% | B = ? | C = -25% | D = ? | E = · | F = -13%

17: CC12CCC(=O)C=C1CCC1C2CCC2(C)C(c3csc(N)n3)CCC12 (configuration not stated)
  A = 3% | B = 18µM* | C = ? | D = · | E = 4% | F = -1%

18: CC(=O)[C@@]1(O)CC[C@H]2[C@@H]3CCC4=CC(=O)CC[C@]4(C)[C@H]3[C@@H](O)C[C@@]21C
  A = 0% | B = ? | C = -1% | D = -19% | E = 5% | F = -2%

19: CC12CCC(=O)C=C1CCC1C2C(O)CC2(C)C(c3csc(N)n3)CCC12 (configuration not stated)
  A = 7% | B = 23µM* | C = -3% | D = · | E = 6% | F = ·

20: CC(=O)[C@H]1CC[C@H]2[C@@H]3CCC4=CC(=O)CC[C@]4(C)[C@H]3CC[C@]12C
  A = 0% | B = 0% | C = -12% | D = 20% | E = 2% | F = -2%

21: Cc1ccc(-c2cc(C#N)c(=O)n(Cc3c(Cl)cccc3Cl)c2)cc1
  A = 0% | B = -1% | C = -15% | D = -1% | E = 1% | F = 7.1µM*

22: N#Cc1cc(-c2ccccc2)cn(Cc2c(Cl)cccc2Cl)c1=O
  A = 0% | B = 8% | C = -5% | D = -11% | E = 5% | F = 28µM*

23: Cc1cccn(Cc2c(Cl)cccc2Cl)c1=O
  A = -1% | B = -5% | C = 0% | D = · | E = 0% | F = ·

24: CC1(C(=O)Nc2ccc(F)cc2F)CCN1C(=O)Cc1ccccc1 (configuration not stated)
  A = 2% | B = · | C = · | D = · | E = · | F = -1%

25: CCS(=O)(=O)Nc1ccc(-c2ccc(NS(=O)(=O)CC)c(OC)c2)cc1OC
  A = 2% | B = ? | C = -14% | D = 10% | E = 2%[46.1 µM] | F = 11µM*

26: COc1ccc(NS(=O)(=O)CC(C)C)c(OC)c1
  A = -1% | B = -23% | C = 7% | D = 0% | E = -1%[46.1 µM] | F = -2%

27: O=C(c1ccc(F)cc1)N1CCCCC(Sc2nnnn2-c2ccccc2)C1=O (configuration not stated)
  A = 0% | B = · | C = 6% | D = -7% | E = 2% | F = 28µM*

28: CCOc1c(Cl)cc(/C=N/NC(N)=S)cc1OC
  A = 6% | B = 21µM* | C = 5% | D = -1% | E = 2%[46.1 µM] | F = ·

29: O=C(Nc1nc2ccc(Br)cc2s1)c1ccco1
  A = 7.9µM* | B = ? | C = -6% | D = -28% | E = -5% | F = 0%

30: O=C(Nc1nc2ccsc2c(=O)s1)c1ccco1
  A = 1.3µM* | B = ? | C = -1% | D = -24% | E = -4% | F = ·

31: Cc1csc2c(=O)sc(NC(=O)c3ccco3)nc12
  A = ? | B = -18% | C = -1% | D = -5% | E = 0% | F = 2%

32: O=C(O)c1cc(S(=O)(=O)O)ccc1O
  A = 0% | B = -14% | C = 1% | D = -3% | E = 5% | F = 20µM*

33: O=C(O)c1cc2cc(S(=O)(=O)O)ccc2cc1O
  A = 1% | B = 12% | C = -1% | D = · | E = 3% | F = -3%

34: CNC(=O)CN1C(=O)CSc2ncccc21
  A = 0% | B = 8% | C = -2% | D = -1% | E = -3% | F = 0%

35: CCN(CC)c1ccc(NC(=O)Cn2cc3c(n2)CCC(C)C3)c(C)c1 (configuration not stated)
  A = 1% | B = 13µM* | C = -19% | D = 7% | E = 4% | F = 2%

36: CCN(CC)c1ccc(NC(=O)CN2C(=O)CSc3ncccc32)c(C)c1
  A = 0% | B = 10µM* | C = -4% | D = 0% | E = 9% | F = 0%

37: O=C(NCCCN1CCN(c2ccc(F)cc2)CC1)Nc1ccccc1Cl
  A = 0% | B = 14% | C = 7% | D = 20% | E = · | F = -3%

38: CSCCC(c1nc2ccccc2[nH]1)n1c(-c2cc(C(F)(F)F)cc(C(F)(F)F)c2)nc2ccccc21 (configuration not stated)
  A = · | B = · | C = · | D = · | E = · | F = -19%

39: Cc1nnc(CN(C)c2ncnc3ccc(-c4ccc5c(c4)OCO5)cc23)o1
  A = · | B = 21% | C = 2% | D = · | E = · | F = ·

40: CS(=O)c1nc(-c2ccc(Br)cc2)cc(-c2ccccc2)c1C#N (configuration not stated)
  A = 0% | B = 15µM* | C = ? | D = 15% | E = -3% | F = -15%

41: CS(=O)(=O)c1nc(-c2ccc(Br)cc2)cc(-c2ccccc2)c1C#N
  A = 8% | B = ? | C = ? | D = 3% | E = · | F = -26%

42: COc1cccc(C(=O)NC2CCCc3c2cnn3-c2ccc(C)c(C)c2)c1OC (configuration not stated)
  A = 0% | B = ? | C = -4% | D = 24% | E = 12% | F = -2%

43: Cc1cc(C(=O)NC2CCCc3c2cnn3-c2ccc(C)c(C)c2)no1 (configuration not stated)
  A = 0% | B = 10µM* | C = -19% | D = 3% | E = -2% | F = -3%
